Laboratory results from patent US20240072809A1, “ASGPR-BINDING COMPOUNDS FOR THE DEGRADATION OF EXTRACELLULAR PROTEINS” (Avilar Therapeutics, Inc., priority 2020, published 2024).

By UniProt entry, the sequences of proteins in these tests, tags left out. Where a name states a change or a piece, a line headed by the entry shows the natural chain unless it says otherwise.
UniProt P07306: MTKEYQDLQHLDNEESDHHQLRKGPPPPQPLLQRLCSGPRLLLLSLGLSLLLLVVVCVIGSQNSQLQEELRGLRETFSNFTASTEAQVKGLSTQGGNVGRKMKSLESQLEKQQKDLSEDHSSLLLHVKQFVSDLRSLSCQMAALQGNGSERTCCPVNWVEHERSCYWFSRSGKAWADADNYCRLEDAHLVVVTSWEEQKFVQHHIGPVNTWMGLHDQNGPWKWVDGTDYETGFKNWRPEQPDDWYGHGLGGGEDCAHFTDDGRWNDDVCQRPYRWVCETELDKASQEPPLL

Target: ASGPR (Homo sapiens (Human), UniProt P07306)
Experiment: Affinity to ASGPR measured by surface plasmon resonance (SPR)
Settings: read-out: SPR Binding External Calculation: KD

CO[C@H]1O[C@H](CO)[C@H](O)[C@H](O)[C@H]1Nc1nc(N(C)C)ns1 [Compound A114, (2R,3R,4R,5R,6S)-5-((3-(dimethylamino)-1,2,4-thiadiazol-5-yl)amino)-2-(hydroxymethyl)-6-methoxytetrahydro-2H-pyran-3,4-diol]
Kd: < 100 µM
